The text below walks through data of ChEMBL document CHEMBL3352430, “4-Aminopyridyl-based CYP51 inhibitors as anti-Trypanosoma cruzi drug leads with improved pharmacokinetic profile and in vivo potency” (J Med Chem, 2014).

The chains behind the UniProt entries cited, without tags or fusion partners.
UniProt P11712, whole entry: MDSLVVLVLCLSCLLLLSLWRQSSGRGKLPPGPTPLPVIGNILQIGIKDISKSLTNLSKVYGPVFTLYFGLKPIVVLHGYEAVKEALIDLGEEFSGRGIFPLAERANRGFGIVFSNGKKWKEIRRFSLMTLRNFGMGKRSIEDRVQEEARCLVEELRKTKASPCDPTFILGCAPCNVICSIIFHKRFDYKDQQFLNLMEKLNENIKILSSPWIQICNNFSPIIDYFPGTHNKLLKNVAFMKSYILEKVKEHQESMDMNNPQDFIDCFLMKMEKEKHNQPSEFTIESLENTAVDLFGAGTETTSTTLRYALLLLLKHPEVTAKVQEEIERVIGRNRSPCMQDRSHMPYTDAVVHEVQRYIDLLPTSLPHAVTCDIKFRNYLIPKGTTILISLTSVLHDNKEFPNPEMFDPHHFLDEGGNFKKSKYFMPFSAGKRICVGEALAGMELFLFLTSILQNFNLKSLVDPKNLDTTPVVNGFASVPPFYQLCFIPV
UniProt P05177, whole entry: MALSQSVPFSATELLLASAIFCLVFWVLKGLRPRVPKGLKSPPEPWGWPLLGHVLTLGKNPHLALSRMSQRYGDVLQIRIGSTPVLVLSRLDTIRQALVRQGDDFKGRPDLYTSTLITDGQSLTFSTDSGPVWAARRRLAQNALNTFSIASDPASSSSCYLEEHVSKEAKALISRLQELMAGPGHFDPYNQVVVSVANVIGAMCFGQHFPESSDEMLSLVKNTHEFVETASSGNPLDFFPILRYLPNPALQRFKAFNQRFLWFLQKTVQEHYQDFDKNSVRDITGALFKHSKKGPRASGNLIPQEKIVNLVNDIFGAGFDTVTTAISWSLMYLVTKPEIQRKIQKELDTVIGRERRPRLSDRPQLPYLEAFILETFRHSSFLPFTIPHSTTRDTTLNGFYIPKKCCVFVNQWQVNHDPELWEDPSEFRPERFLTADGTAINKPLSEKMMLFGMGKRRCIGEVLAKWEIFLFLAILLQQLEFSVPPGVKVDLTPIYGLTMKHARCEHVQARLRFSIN
UniProt P08684, whole entry: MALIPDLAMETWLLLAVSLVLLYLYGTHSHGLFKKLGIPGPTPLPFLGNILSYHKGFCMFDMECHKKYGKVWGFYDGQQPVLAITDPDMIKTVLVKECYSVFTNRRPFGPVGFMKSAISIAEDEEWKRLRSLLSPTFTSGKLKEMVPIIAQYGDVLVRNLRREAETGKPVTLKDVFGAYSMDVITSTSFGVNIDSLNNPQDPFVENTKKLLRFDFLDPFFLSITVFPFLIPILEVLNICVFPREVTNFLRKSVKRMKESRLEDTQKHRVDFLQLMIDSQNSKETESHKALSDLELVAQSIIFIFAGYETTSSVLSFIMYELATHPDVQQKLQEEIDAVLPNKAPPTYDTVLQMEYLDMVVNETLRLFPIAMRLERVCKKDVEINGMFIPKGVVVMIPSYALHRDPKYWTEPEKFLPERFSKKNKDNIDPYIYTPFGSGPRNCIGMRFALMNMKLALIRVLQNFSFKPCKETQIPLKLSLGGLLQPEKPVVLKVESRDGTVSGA
UniProt P10635, whole entry: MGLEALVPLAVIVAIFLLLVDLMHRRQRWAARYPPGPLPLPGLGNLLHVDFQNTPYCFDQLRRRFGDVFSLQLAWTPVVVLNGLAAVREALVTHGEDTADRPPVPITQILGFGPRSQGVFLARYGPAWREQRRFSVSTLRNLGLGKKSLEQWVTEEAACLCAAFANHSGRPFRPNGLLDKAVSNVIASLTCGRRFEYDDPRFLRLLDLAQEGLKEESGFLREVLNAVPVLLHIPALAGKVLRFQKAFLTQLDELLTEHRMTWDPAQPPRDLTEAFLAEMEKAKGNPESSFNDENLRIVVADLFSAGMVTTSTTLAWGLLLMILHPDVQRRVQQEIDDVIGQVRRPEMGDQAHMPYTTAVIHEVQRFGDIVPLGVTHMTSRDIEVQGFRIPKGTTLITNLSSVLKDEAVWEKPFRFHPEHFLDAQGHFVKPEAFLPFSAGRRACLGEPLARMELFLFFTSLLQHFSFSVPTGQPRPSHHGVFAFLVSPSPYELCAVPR

What all share (type): ADME
One data set has as its target Cytochrome P450 2C9 (Homo sapiens, UniProt P11712). The data set is described as follows: Inhibition of CYP2C9 in human liver microsomes at 1 uM. On the technique in general: Liver microsomes are a subcellular fraction often used to study metabolism.
Another data set has as its target Cytochrome P450 1A2 (Homo sapiens, UniProt P05177). The data set is described as follows: Inhibition of CYP1A2 in human liver microsomes at 1 uM.
For another data set, the system named is Liver microsome. Put plainly: Half life in human liver microsomes.
The target in the next data set is Cytochrome P450 3A4 (Homo sapiens, UniProt P08684). Put plainly: Inhibition of CYP3A4 in human liver microsomes at 1 uM.
A further data set deals with Cytochrome P450 2D6 (Homo sapiens, UniProt P10635). Put plainly: Inhibition of CYP2D6 in human liver microsomes at 1 uM.

Each structure is given as a SMILES string.

Take `O=C(N[C@H](Cc1c[nH]c2ccccc12)C(=O)Nc1ccncc1)c1ccc(N2CCN(c3cccc(Cl)c3)CC2)cc1F`: the “inhibition (INH)” value was 95% against Cytochrome P450 2C9, 6% against Cytochrome P450 1A2, 85% against Cytochrome P450 3A4 and 57% against Cytochrome P450 2D6. Further, the t1/2 in the data set with Liver microsome came to 6 min.
As for `O=C(N[C@H](Cc1c[nH]c2ccccc12)C(=O)Nc1ccncc1)c1ccc(-c2ccc(OCc3ccc(F)cc3)c(F)c2)cc1F`, the “inhibition (INH)” value was 89% against Cytochrome P450 2C9, -14% on Cytochrome P450 1A2, 48% against Cytochrome P450 3A4 and 19% on Cytochrome P450 2D6.
With `CC(=O)N1CCN(c2ccc(C(=O)N[C@H](Cc3c[nH]c4ccccc34)C(=O)Nc3ccncc3)c(F)c2)CC1`, the “inhibition (INH)” value at Cytochrome P450 2C9 was 76%; against Cytochrome P450 1A2, -13%; on Cytochrome P450 3A4, 67%; on Cytochrome P450 2D6 it was 14%.
